Read-outs that look alike come from different tables or passages of the source.
Tests used:
EL-4/HHD/neu tumor cells = test: Antitumor protection after peptide vaccination, EL-4/HHD/neu graft; conditions: 10 HHD mice, two injections two weeks apart
[1] = system: RMAS-HHD cells loaded with peptide; test: Vax1/pet-neu immunization: CTL lysis of peptide-loaded RMAS-HHD cells; assay type: in vivo, HHD mice; conditions: CTLs of a Vax1/pet-neu immunized mouse; RMAS-HHD targets loaded with the named peptide; FIG. 14
Experimental: One week after the final immunization, their spleen cells are restimulated in vitro with B cells activated with LPS and loaded with each of the twelve peptides.
The cytotoxicity is evaluated using RMAS-HHD cells (target cells) loaded with the peptide corresponding to that with which the B cells were loaded or with a control peptide.
Six mice are immunized with either the Vax1/pet-neu construct or the vector Vax1. Their spleen cells are stimulated in vitro in a repeated manner with the B cells activated with LPS and loaded with each peptide to be tested (effector cells).
The cytotoxicity is tested after the third stimulation in vitro. The RMAS-HHD cells, loaded with the peptide corresponding to that with which the B cells were loaded, or with a control peptide, and the EL-4/HHD/neu cells are used as target cells.

[2] = system: RMAS-HHD targets loaded with peptide; test: Immunogenicity: CTL generation in HHD transgenic mice, 51Cr lysis of peptide-loaded targets; assay type: in vivo; conditions: CTLs induced in HHD mice sensitized with the natural peptide; FIG. 1
HLA A2.1 molecule [3] = molecular target: T1, HLA A2.1 molecule (Homo sapiens, UniProt P04439, D140Y/D185E/D98H/E176V/E277Q/G131W/G231S/I119V/I121R/I166T/I218V/L300P/L318F/N151K/N90K/P208A/P217A/Q86G/Q94H/R138H/R169H/T345S); test: Stability of the peptide/HLA A2.1 complex (DC50) on T2 cells, flow cytometry; assay type: binding
Experimental: For each incubation time, the cells are then labeled, as indicated above, with the BB7.2 antibody, and analyzed by flow cytometry in order to evaluate the amount of peptide/HLA A2.1 complex present at their surface. […] The DC50 (dissociation complex: DC) is defined as being the time required for the loss of 50% of the HLA A2.1/peptide complexes stabilized at t=0.

HLA A2.1 molecule [4] = molecular target: T1, HLA A2.1 molecule; assay type: binding

Sequence: KIFGSLAFL [HER-2/neu 369]
- tumor size at D28 (EL-4/HHD/neu tumor cells): 474±234 mm^2
- specific lysis above background noise [1]: 30%
- killing of RMAS-HHD cells loaded with natural peptide or its P1Y variant [2]: same efficacy

Sequence: SLYNTVATL [HIV gag 76]
- killing of RMAS-HHD cells loaded with natural peptide or its P1Y variant [2]: same efficacy

Sequence: ALIHHNTHL [HER-2/neu 466]
- DC50 Y1-DC50 WT (HLA A2.1 molecule [3]; […], arrow in neighbouring cell gives direction): >4 h
- DC50 (HLA A2.1 molecule [3]; native peptides, time for loss of 50% of HLA A2.1/peptide complexes): 2 h

Sequence: CLTSTVQLV [HER-2/neu 789, reference compound]
- RA (HLA A2.1 molecule [4]): 1.6
- RA WT/RA Y1 (HLA A2.1 molecule [4]): 2.1
- DC50 (HLA A2.1 molecule [3]): 6 to 8 h
- DC50 Y1-DC50 WT (HLA A2.1 molecule [3]): =0 hours
